Results on one molecule are retold here after BindingDB's records for patent US10703749 (Janssen Pharmaceutica, 2020).

Chains of the proteins cited; added tags and fusions are not shown. Lines headed by an entry give the natural chain unless they say otherwise; changes in a name come on top.
UniProt Q99572: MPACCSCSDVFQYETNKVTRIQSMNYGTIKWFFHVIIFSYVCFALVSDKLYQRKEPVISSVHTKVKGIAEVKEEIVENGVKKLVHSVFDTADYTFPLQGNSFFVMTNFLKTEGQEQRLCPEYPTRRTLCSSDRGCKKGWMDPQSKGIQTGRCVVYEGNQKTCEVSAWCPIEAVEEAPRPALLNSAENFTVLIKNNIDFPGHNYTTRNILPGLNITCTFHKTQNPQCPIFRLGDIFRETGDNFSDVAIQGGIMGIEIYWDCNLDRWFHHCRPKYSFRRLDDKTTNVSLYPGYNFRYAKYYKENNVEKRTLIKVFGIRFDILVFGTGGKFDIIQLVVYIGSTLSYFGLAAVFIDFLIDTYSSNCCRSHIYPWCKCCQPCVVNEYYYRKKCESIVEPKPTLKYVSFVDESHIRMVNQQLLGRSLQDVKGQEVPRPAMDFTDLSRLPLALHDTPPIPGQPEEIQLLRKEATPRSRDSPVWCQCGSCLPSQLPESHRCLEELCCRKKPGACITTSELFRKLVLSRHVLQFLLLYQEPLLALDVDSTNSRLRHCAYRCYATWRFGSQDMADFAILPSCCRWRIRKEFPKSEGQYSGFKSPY

pIC50, pKi: −log10 of the molar value.

Assay [1] concerns the target P2X purinoceptor 7 (Homo sapiens, UniProt Q99572). Put plainly: Radioligand Binding.
In assay [2] the target is T1, P2X purinoceptor 7 (Rattus norvegicus, UniProt Q64663).
T1 sequence (Q64663 whole entry): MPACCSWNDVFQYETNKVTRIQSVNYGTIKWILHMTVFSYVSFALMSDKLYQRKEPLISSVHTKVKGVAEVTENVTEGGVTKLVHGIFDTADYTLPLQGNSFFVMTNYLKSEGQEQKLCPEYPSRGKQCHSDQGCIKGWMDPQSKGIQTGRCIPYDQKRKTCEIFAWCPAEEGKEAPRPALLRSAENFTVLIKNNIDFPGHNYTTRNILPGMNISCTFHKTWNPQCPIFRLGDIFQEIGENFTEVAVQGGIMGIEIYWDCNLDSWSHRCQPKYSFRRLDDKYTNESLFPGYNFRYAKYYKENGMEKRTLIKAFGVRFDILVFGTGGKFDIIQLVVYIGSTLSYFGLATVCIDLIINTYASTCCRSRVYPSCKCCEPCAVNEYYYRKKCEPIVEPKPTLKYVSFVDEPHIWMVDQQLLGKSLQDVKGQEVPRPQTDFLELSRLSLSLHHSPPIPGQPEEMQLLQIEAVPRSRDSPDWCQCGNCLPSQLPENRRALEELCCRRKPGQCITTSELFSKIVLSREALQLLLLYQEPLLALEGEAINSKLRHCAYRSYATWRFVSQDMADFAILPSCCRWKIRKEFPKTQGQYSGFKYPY
Put plainly: Radioligand Binding.

One may read the pIC50 as the negative decadic logarithm of the IC50, by convention in mol/L. The low end stands for a high IC50, the high end for a low IC50. A word on the pKi: it is the negative decadic logarithm of the Ki, by convention in mol/L. Low readings indicate a high Ki, high ones a low Ki. Regarding `C[C@H]1CC2=C(CN1C(=O)c1cccc(C(F)(F)F)c1)NNN2c1ncc(F)cn1` [US10703749, Example 304], at P2X purinoceptor 7 [1], the pIC50 is 6.95 and the negative-log Ki (pKi) was 7.65. On P2X purinoceptor 7 [2], the pIC50 was 5.25.
